Laboratory results taken from US5587373A, “2-acyloxycephem derivatives” (Farmitalia Carlo Erba S.r.l., priority 1993, dated 1996).

Molecular target: T1, human leucocyte elastase (HLE) (Homo sapiens, UniProt P08246)
T1 construct: purchased Calbiochem
T1 sequence (P08246 30-267): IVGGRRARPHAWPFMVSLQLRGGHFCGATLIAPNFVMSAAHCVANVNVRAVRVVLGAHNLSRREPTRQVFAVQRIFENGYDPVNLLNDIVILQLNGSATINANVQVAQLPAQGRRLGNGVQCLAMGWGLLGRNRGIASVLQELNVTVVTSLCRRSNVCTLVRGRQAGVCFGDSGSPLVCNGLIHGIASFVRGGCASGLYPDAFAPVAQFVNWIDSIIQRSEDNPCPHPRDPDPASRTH
Experiment: HLE (human leucocyte elastase) inhibition kinetics
Assay type: biochemical
Conditions: Table 2; rate of formation of the HLE-inhibitor complex; 37° C., pH 7.4; read-out: "Efficacy" K5 /Ki
Source text: Vs =steady state rate Vz =zero time rate Vo =rate at [I]=0 Km =Michaelis constant for the enzyme substrate pair (independently determined under the same experimental conditions). Full details of the Experimental Protocol are reported in […] et al., Eur. J. Med. Chem. 1992, 27, 875-890.

kinact/KI: 1.5e+06 M⁻¹ s⁻¹
SMILES: CO[C@H]1C(=O)N2C(C(=O)C(C)(C)C)=C(C)C(OC(=O)c3ccccc3)S(=O)(=O)[C@H]12 (stereo partly drawn) [Compound 2, 2-Benzoyloxy-4-tert-butylcarbonyl-7α-methoxy-3-methyl-3-cephem 1,1-dioxide]
